Assay results reported in US20260007684A1, “AMIDE DERIVATIVES FOR INHIBITING NLRP3 AND USES THEREOF” (Ventus Therapeutics U.S., Inc., priority 2023, published 2026).

Sequences of proteins named here, by UniProt entry; tags and fusion partners are left off.
UniProt Q96P20, whole entry: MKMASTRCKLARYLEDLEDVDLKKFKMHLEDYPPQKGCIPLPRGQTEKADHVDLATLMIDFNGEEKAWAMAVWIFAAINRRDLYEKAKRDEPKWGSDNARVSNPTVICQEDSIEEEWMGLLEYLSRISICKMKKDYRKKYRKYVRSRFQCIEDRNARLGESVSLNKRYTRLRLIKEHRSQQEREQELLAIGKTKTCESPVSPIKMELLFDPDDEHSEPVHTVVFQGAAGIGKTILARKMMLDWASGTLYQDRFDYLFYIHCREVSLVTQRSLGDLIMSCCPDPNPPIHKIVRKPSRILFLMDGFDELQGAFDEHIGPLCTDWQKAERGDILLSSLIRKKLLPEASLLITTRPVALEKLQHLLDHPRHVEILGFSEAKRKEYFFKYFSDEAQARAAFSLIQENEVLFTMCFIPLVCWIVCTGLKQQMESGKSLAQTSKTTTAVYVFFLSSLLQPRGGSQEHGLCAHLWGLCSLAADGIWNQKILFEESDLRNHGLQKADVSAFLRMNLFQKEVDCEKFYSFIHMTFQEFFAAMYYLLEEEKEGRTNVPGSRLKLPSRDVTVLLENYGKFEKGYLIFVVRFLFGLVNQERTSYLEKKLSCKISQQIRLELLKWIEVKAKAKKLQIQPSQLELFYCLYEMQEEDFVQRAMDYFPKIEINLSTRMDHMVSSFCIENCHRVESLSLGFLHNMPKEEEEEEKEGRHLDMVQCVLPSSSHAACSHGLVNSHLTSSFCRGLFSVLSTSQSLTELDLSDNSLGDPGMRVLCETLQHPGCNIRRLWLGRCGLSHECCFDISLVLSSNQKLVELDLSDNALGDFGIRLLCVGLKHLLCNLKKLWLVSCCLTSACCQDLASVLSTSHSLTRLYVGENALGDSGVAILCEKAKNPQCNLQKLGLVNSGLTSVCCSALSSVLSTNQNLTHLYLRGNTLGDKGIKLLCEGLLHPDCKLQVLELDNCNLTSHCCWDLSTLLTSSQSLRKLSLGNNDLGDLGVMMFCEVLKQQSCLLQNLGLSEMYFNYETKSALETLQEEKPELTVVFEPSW

Legend:
[1] = target: T1, human NLRP3 (Homo sapiens (Human), UniProt Q96P20); test: Scintillation Proximity (SPA) NLRP3 Assay: displacement of 3H-MCC950; type: binding; conditions: read-out: SPA IC50
[2] = target: T1, human NLRP3; test: Human Whole Blood (hWB) NLRP3 Assay (LPS/ATP, IL-1β); type: cell-based; conditions: read-out: hWB IC50
[3] = target: T1, human NLRP3; test: Human PBMC NLRP3 Assay (LPS priming, ATP stimulation, cytokine measurement); type: cell-based; conditions: read-out: PBMC IC50

Row | IC50 [1] [nM] | IC50 [2] [nM] | IC50 [3] [nM] | Structure (SMILES)
1 | < 1000 | 1000 to 2000 | 10 to 100 | C[C@@H]1CCN(c2nnn[nH]2)C[C@H](NC(=O)C2(c3ncc(Cl)cc3O)CC2)C1 (relative stereo)
2 | 1000 to 10000 | 2000 to 3000 |  | C[C@H]1CCN(c2nnn[nH]2)C[C@H](NC(=O)C2(c3ncc(Cl)cc3O)CC2)C1 (relative stereo)
3 | 10000 to 50000 |  |  | C[C@H]1CCN(c2nnn[nH]2)C[C@@H](NC(=O)C2(c3ccc(Cl)c(F)c3)CC2)C1 (single isomer, unassigned)
4 | 50000 to 100000 |  |  | Cc1cc(C2(C(=O)N[C@H]3C[C@@H](C)CCN(c4nnn[nH]4)C3)CC2)ccc1C(F)(F)F (single isomer, unassigned)
